{"source": "patent US20230218773A1", "about": "(priority 2020, published 2023)", "assay": "Body weight change at 0.9 mg/kg MMAE equivalent dose", "format": "in vivo, mice", "details": "Day 0, 4, 8, 12", "description": "FIGS. 15A-15E: Body weight change of mice when dosed with 0.9 mg/kg MMAE equivalent dose. […] Body weights of mice during and after treatments were monitored. (n=5). Data shown as mean±standard deviation. Mice in MMAE group (B) were dosed with 0.9 mg/kg MMAE at Day 0 and 4. On Day 6, mice in MMAE group were euthanized due to significant body weight loss (>20%). Mice in MMAE-MAL group were euthanized on Day 12 due to significant body weight loss. Other groups were euthanized on Day 13."}
{"substance": "ALDC1: albumin-drug conjugate: MMAE via mc-vc-pab linker on Cys34 of recombinant human serum albumin, drug to albumin ratio of 1", "values": [{"measurement": "body weight change", "result": "minimal weight change"}]}
